Measurements reported in PMC4083421 (Nature Communications, 2014).

Conditions: control protein; peptidoglycan, chitin, cellulose, xylan

cytochrome c
binding to insoluble polysaccharides: No binding activity was detected
